From PubChem BioAssay (NCI)
Several values for one entry are separate records, joined by “and”; a condition that tells them apart may be missing. Identical values can stand only once.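 How tested: cells in 96-well plates exposed to compound for 48 hours at five concentrations. GI50 = concentration required for 50% inhibition of growth. TGI is the concentration that stops growth completely.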

Tests used:
Assay in all cases: inhibition of tumour cell growth, NCI panel, 48 h
A498 renal = tested on: A498 renal
IGROV1 ovarian = tested on: IGROV1 ovarian
MDA-MB-231 breast = tested on: MDA-MB-231 breast
NCI-H460 lung = tested on: NCI-H460 lung
PC-3 prostate = tested on: PC-3 prostate
SNB-75 CNS = tested on: SNB-75 CNS
UACC-257 melanoma = tested on: UACC-257 melanoma
T-47D breast = tested on: T-47D breast
SK-MEL-5 melanoma = tested on: SK-MEL-5 melanoma
OVCAR-3 ovarian = tested on: OVCAR-3 ovarian
SF-268 CNS = tested on: SF-268 CNS
U251 CNS = tested on: U251 CNS
HOP-92 NSCLC = tested on: HOP-92 NSCLC
RXF 393 renal = tested on: RXF 393 renal
LOX IMVI melanoma = tested on: LOX IMVI melanoma
NCI-H23 lung = tested on: NCI-H23 lung
UO-31 renal = tested on: UO-31 renal
NCI/ADR-RES ovarian = tested on: NCI/ADR-RES ovarian
ACHN renal = tested on: ACHN renal
K-562 leukemia = tested on: K-562 leukemia
CCRF-CEM leukemia = tested on: CCRF-CEM leukemia
OVCAR-8 ovarian = tested on: OVCAR-8 ovarian
NCI-H322M lung = tested on: NCI-H322M lung
COLO 205 colon = tested on: COLO 205 colon
NCI-H522 lung = tested on: NCI-H522 lung
SR leukemia = tested on: SR leukemia
HOP-62 NSCLC = tested on: HOP-62 NSCLC
MALME-3M melanoma = tested on: MALME-3M melanoma
OVCAR-5 ovarian = tested on: OVCAR-5 ovarian
HCT-116 colon = tested on: HCT-116 colon
786-0 renal = tested on: 786-0 renal
HT29 colon = tested on: HT29 colon
MCF7 breast = tested on: MCF7 breast
RPMI-8226 leukemia = tested on: RPMI-8226 leukemia
SK-MEL-2 melanoma = tested on: SK-MEL-2 melanoma
DU-145 prostate = tested on: DU-145 prostate
SK-OV-3 ovarian = tested on: SK-OV-3 ovarian
MDA-N = tested on: MDA-N
EKVX NSCLC = tested on: EKVX NSCLC
SF-539 CNS = tested on: SF-539 CNS
M14 melanoma = tested on: M14 melanoma
HL-60(TB) leukemia = tested on: HL-60(TB) leukemia
SNB-19 CNS = tested on: SNB-19 CNS
MDA-MB-435 = tested on: MDA-MB-435
MOLT-4 leukemia = tested on: MOLT-4 leukemia
KM12 colon = tested on: KM12 colon
NCI-H226 lung = tested on: NCI-H226 lung
UACC-62 melanoma = tested on: UACC-62 melanoma
CAKI-1 renal = tested on: CAKI-1 renal
HS 578T breast = tested on: HS 578T breast
HCT-15 colon = tested on: HCT-15 colon
SF-295 CNS = tested on: SF-295 CNS
SW-620 colon = tested on: SW-620 colon
BT-549 breast = tested on: BT-549 breast
SN12C renal = tested on: SN12C renal
OVCAR-4 ovarian = tested on: OVCAR-4 ovarian
A549 NSCLC = tested on: A549 NSCLC
HCC-2998 colon = tested on: HCC-2998 colon
TK-10 renal = tested on: TK-10 renal
SK-MEL-28 melanoma = tested on: SK-MEL-28 melanoma

SMILES: CC(=O)O[C@H]1C[C@@H]2OC3C=C(C)CCC3(C)[C@@]1(C)[C@@]21CO1 (some centres not stated)
- GI50 (A498 renal): 335 nM and 651 nM
- TGI (A498 renal): 1290 nM and 2710 nM
- GI50 (IGROV1 ovarian): 486 nM and 276 nM
- TGI (IGROV1 ovarian): 4780 nM and 2050 nM
- GI50 (MDA-MB-231 breast): 366 nM and 303 nM
- TGI (MDA-MB-231 breast): 2130 nM and 1820 nM
- GI50 (NCI-H460 lung): 320 nM and 102 nM
- TGI (NCI-H460 lung): 2400 nM and 453 nM
- GI50 (PC-3 prostate): 625 nM and 797 nM
- TGI (PC-3 prostate): 7080 nM and 5610 nM
- GI50 (SNB-75 CNS): 278 nM and 231 nM
- TGI (SNB-75 CNS): 1630 nM and 1650 nM
- GI50 (UACC-257 melanoma): 291 nM and 253 nM
- TGI (UACC-257 melanoma): 1260 nM and 2040 nM
- GI50 (T-47D breast): 257 nM and 262 nM
- TGI (T-47D breast): 1130 nM and 3100 nM
- GI50 (SK-MEL-5 melanoma): 161 nM and 123 nM
- TGI (SK-MEL-5 melanoma): 368 nM and 783 nM
- GI50 (OVCAR-3 ovarian): 419 nM and 449 nM
- TGI (OVCAR-3 ovarian): 2480 nM and 4380 nM
- GI50 (SF-268 CNS): 371 nM and 343 nM
- TGI (SF-268 CNS): 3480 nM and 2090 nM
- GI50 (U251 CNS): 259 nM and 360 nM
- TGI (U251 CNS): 1340 nM and 6020 nM
- GI50 (HOP-92 NSCLC): 218 nM and 408 nM
- TGI (HOP-92 NSCLC): 948 nM and 3230 nM
- GI50 (RXF 393 renal): 266 nM and 331 nM
- TGI (RXF 393 renal): 1520 nM and 1580 nM
- GI50 (LOX IMVI melanoma): 156 nM and 58 nM
- TGI (LOX IMVI melanoma): 653 nM and 229 nM
- GI50 (NCI-H23 lung): 300 nM and 506 nM
- TGI (NCI-H23 lung): 1500 nM and 2720 nM
- GI50 (UO-31 renal): 729 nM and 521 nM
- TGI (UO-31 renal): 6600 nM and 2350 nM
- GI50 (NCI/ADR-RES ovarian): 359 nM and 307 nM
- TGI (NCI/ADR-RES ovarian): 3500 nM and 2140 nM
- GI50 (ACHN renal): 404 nM and 272 nM
- TGI (ACHN renal): 2150 nM and 1490 nM
- GI50 (K-562 leukemia): 201 nM
- TGI (K-562 leukemia): 8750 nM
- GI50 (CCRF-CEM leukemia): 235 nM and 98.9 nM
- TGI (CCRF-CEM leukemia): 978 nM and 1580 nM
- GI50 (OVCAR-8 ovarian): 334 nM and 264 nM
- TGI (OVCAR-8 ovarian): 4310 nM and 1640 nM
- GI50 (NCI-H322M lung): 379 nM and 429 nM
- TGI (NCI-H322M lung): 3710 nM and 3500 nM
- GI50 (COLO 205 colon): 188 nM and 153 nM
- TGI (COLO 205 colon): 372 nM and 426 nM
- GI50 (NCI-H522 lung): 352 nM and 278 nM
- TGI (NCI-H522 lung): 1700 nM and 880 nM
- GI50 (SR leukemia): 378 nM and 93.5 nM
- GI50 (HOP-62 NSCLC): 2010 nM and 1980 nM
- TGI (HOP-62 NSCLC): 7420 nM and 17100 nM
- GI50 (MALME-3M melanoma): 349 nM and 273 nM
- TGI (MALME-3M melanoma): 2170 nM and 1230 nM
- GI50 (OVCAR-5 ovarian): 938 nM and 1230 nM
- TGI (OVCAR-5 ovarian): 6280 nM and 8550 nM
- GI50 (HCT-116 colon): 243 nM and 167 nM
- TGI (HCT-116 colon): 1820 nM and 1330 nM
- GI50 (786-0 renal): 469 nM and 456 nM
- TGI (786-0 renal): 4200 nM and 3430 nM
- GI50 (HT29 colon): 312 nM and 250 nM
- TGI (HT29 colon): 1610 nM and 2290 nM
- GI50 (MCF7 breast): 243 nM and 334 nM
- GI50 (RPMI-8226 leukemia): 306 nM and 269 nM
- TGI (RPMI-8226 leukemia): 1450 nM and 1110 nM
- GI50 (SK-MEL-2 melanoma): 301 nM and 330 nM
- TGI (SK-MEL-2 melanoma): 911 nM and 1910 nM
- GI50 (DU-145 prostate): 440 nM and 359 nM
- TGI (DU-145 prostate): 3450 nM and 2590 nM
- GI50 (SK-OV-3 ovarian): 431 nM and 627 nM
- TGI (SK-OV-3 ovarian): 4570 nM and 6170 nM
- GI50 (MDA-N): 261 nM
- TGI (MDA-N): 1440 nM
- GI50 (EKVX NSCLC): 491 nM and 390 nM
- TGI (EKVX NSCLC): 3990 nM and 2250 nM
- GI50 (SF-539 CNS): 267 nM and 284 nM
- TGI (SF-539 CNS): 653 nM and 1020 nM
- GI50 (M14 melanoma): 235 nM and 217 nM
- TGI (M14 melanoma): 619 nM and 1110 nM
- GI50 (HL-60(TB) leukemia): 252 nM and 167 nM
- GI50 (SNB-19 CNS): 267 nM and 321 nM
- TGI (SNB-19 CNS): 4110 nM and 10100 nM
- GI50 (MDA-MB-435): 296 nM and 237 nM
- TGI (MDA-MB-435): 1290 nM and 1510 nM
- GI50 (MOLT-4 leukemia): 340 nM and 185 nM
- TGI (MOLT-4 leukemia): 3680 nM and 2250 nM
- GI50 (KM12 colon): 359 nM and 277 nM
- TGI (KM12 colon): 5040 nM and 2070 nM
- GI50 (NCI-H226 lung): 302 nM and 244 nM
- TGI (NCI-H226 lung): 1780 nM and 1190 nM
- GI50 (UACC-62 melanoma): 310 nM and 275 nM
- TGI (UACC-62 melanoma): 1590 nM and 2200 nM
- GI50 (CAKI-1 renal): 594 nM and 507 nM
- TGI (CAKI-1 renal): 4170 nM and 6200 nM
- GI50 (HS 578T breast): 366 nM and 278 nM
- TGI (HS 578T breast): 3180 nM and 1340 nM
- GI50 (HCT-15 colon): 303 nM and 208 nM
- TGI (HCT-15 colon): 2710 nM and 1660 nM
- GI50 (SF-295 CNS): 548 nM and 738 nM
- TGI (SF-295 CNS): 3520 nM and 5110 nM
- GI50 (SW-620 colon): 282 nM and 279 nM
- TGI (SW-620 colon): 2630 nM and 24100 nM
- GI50 (BT-549 breast): 376 nM and 744 nM
- TGI (BT-549 breast): 2800 nM and 10500 nM
- GI50 (SN12C renal): 371 nM and 495 nM
- TGI (SN12C renal): 4760 nM and 2840 nM
- GI50 (OVCAR-4 ovarian): 265 nM and 316 nM
- TGI (OVCAR-4 ovarian): 939 nM and 3310 nM
- GI50 (A549 NSCLC): 322 nM and 365 nM
- TGI (A549 NSCLC): 2490 nM and 3910 nM
- GI50 (HCC-2998 colon): 298 nM and 258 nM
- TGI (HCC-2998 colon): 1240 nM and 1010 nM
- GI50 (TK-10 renal): 1170 nM and 457 nM
- TGI (TK-10 renal): 7160 nM and 5850 nM
- GI50 (SK-MEL-28 melanoma): 256 nM and 233 nM
- TGI (SK-MEL-28 melanoma): 774 nM and 2400 nM
